PubChem BioAssay AID652088 (The Scripps Research Institute Molecular Screening Center, 2013)
Calls of active or inactive are those of the source.

Key:
Assay in all cases: PubChem AID 652088
Conditions in all cases: pooled hepatic microsomes, five species, LC-MS/MS half-life, stronger effect = higher value
rat = tested on: rat
monkey = tested on: monkey
mouse = tested on: mouse
human = tested on: human
dog = tested on: dog

half-life (rat): inactive: 20 min
half-life (monkey): inactive: 13 min
half-life (mouse): inactive: 5 min
half-life (human): > 120 min
half-life (dog): > 120 min
Structure (SMILES): COC(=O)c1cc(Br)cnc1N1CCC(NC2CCCCC2)C(O)C1 (stereo not given)
